Activity calls are given as the source filed them. The rule behind the calls is not given here.
System: LNCaP
Details: Homo sapiens, dose 40.0 mg/kg/day, route po, time 32.0 day

For `CNC(=O)c1ccc(N2C(=S)N(c3ccc(C#N)c(C(F)(F)F)c3)C(=O)C2(C)C)cc1F` [ENZALUTAMIDE], the inhibition was “Active”.
